Binding of CDR-mutated scFvs to a peptide of the spike HR2 region

The measurements come from Engelhart et al. 2022 (doi:10.1038/s41597-022-01779-4) through the FLAb antibody collection.

Target peptide (SARS-CoV-2 spike, HR2 region): PDVDLGDISGINAS

Parent: Ab-14, a human scFv built as VH, the linker GGGGSGGGGSGGGGS, VL. Only the CDRs of the light chain vary.
VH: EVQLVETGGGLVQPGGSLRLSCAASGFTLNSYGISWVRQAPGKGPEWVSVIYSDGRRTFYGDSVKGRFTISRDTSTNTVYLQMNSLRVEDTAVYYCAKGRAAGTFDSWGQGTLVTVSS
VL: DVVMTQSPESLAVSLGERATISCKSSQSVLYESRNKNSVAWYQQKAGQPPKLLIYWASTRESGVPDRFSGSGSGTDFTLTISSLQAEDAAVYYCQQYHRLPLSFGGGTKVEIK

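The library (AAYL50) carries one to three amino acid substitutions per variant, with no insertions or deletions. AlphaSeq pools MATa yeast showing the antibodies with MATalpha yeast showing the peptide. Mating (16 h, 30 °C) was followed by selection of diploids and sequencing of their barcodes. A regression on co-assayed BCL2-family reference pairs converts the normalised counts of each replicate to an apparent Kd. The assay was run in three technical replicates.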

Each variant is given by its three light chain CDRs, as the data file delimits them; those of the parent are KSSQSVLYESRNKNSVA, WASTRES, QQYHRLPLS. Every variant below is changed at S103 of the VL (sequential numbering). Values are log10 of the apparent Kd in nM; lower means stronger binding. A pair that was not seen in that replicate is written "ND"; this usually means weak binding, but a binder can also be missed. Three control strains display no target. For library AAYL50, 18% of the pairings with them gave a signal, with a median of 4.19 and one signal in twenty below 2.99, so weak values seen in few replicates may be background. For each scFv, signals with the empty controls are counted beside the result, with their mean in brackets.

CDR-L1,CDR-L2,CDR-L3,"replicates, log10 nM",signal with controls
KSSQSNLYESRNKNSVA,WASTRES,QPYHRLPLQ,0.73 1.04 0.90,2 of 9 (3.64)
KSAQSVLYESRNKNSVA,WASTRES,QQYHRLPLH,ND ND ND,0 of 9
KSFQSVLYESRNKNSVA,WASTGES,QQYHRLPLQ,3.97 ND ND,3 of 9 (3.34)
KSSQSVLYESRNKNSCA,WASTREH,QQYHRLPLR,3.50 3.52 ND,2 of 9 (4.77)
KSSPSVLYESRNKNSVA,WASTREP,QQYHRLPLY,2.07 2.04 2.43,8 of 9 (4.31)
KSSQSMLYESRNKNSGA,WASTRES,QQYHRLPLK,2.69 ND ND,1 of 9 (2.54)
KSSQSKLYESRNKNSVA,FASTRES,QQYHRLPLI,1.25 1.21 1.27,1 of 9 (4.20)
KLSQSVLYESRNKNSVA,WASTRES,QQYHRLPLC,1.00 1.42 2.53,1 of 9 (3.15)
KVSQSVLYEDRNKNSVA,WASTRES,QQYHRLPLG,-0.31 0.02 -0.27,1 of 9 (1.61)
KSSQSVLYESRNKNSVA,WASTRAS,QQYHRTPLG,1.77 1.69 1.58,3 of 9 (3.53)
KSSQSVLYESRNKNSVA,WASTAGS,QQYHRLPLV,ND ND ND,2 of 9 (3.86)
KSIQSPLYESRNKNSVA,WASTRES,QQYHRLPLF,1.82 1.91 4.38,0 of 9
KSSQSVLYESRNKNSVA,WASTRMS,QQYHYLPLA,1.13 1.11 1.10,2 of 9 (4.92)
KSSQSVLYESRNKSSIA,WASTRES,QQYHRLPLV,1.19 1.51 1.47,3 of 9 (4.52)
KFSQSVLYESRNKNSWA,WASTRES,QQYHRLPLM,2.90 ND 2.60,0 of 9
KSYQSVLYESRNKNSVA,WASTRES,QFYHRLPLT,ND ND ND,0 of 9
KSLQSVLYESRNKNSVA,WASARES,QQYHRLPLL,ND ND ND,0 of 9
KSSQSVLYESRNKNSVA,WASTRES,QQMHTLPLL,0.36 0.82 0.64,0 of 9
KSSQSVLYESDNKNSVA,WASTRES,QQYHRLPAE,ND ND ND,0 of 9
KSSQSVLQESRNKNSVA,WALTRES,QQYHRLPLH,ND 3.83 ND,0 of 9
KSSQSVLYESRNWNSVA,WASTRES,QQYHRLPLR,ND 4.13 ND,0 of 9
RSSQSVLYESRNKNSVQ,WASTRES,QQYHRLPLI,ND ND ND,1 of 9 (4.76)
KSSQSVLYESRNKNSVA,WASTRES,QQYHRLPLK,1.97 1.77 2.12,3 of 9 (3.90)
KSSQSFLYESRRKNSVA,WASTRES,QQYHRLPLN,ND ND ND,2 of 9 (3.83)
KSSQSVLYESRNKNSVA,WTSTRES,QQYHRLPLY,0.90 1.01 0.96,1 of 9 (3.69)
KSSQSVLYNSRNKFSVA,WASTRES,QQYHRLPLY,ND ND ND,0 of 9
KSDQSVLYESRTKNSVA,WASTRES,QQYHRLPLC,1.63 1.62 1.85,2 of 9 (4.21)
KSSSSVLYESRNKNSVA,WASTRES,QQYHRKPLP,ND ND ND,1 of 9 (4.13)
KSSQSVLYESRNKNSVA,WAATRES,QQYHRLPGE,ND ND ND,3 of 9 (4.07)
KSSQSVLYESRNKNSPA,DASTRES,QQYHRLPLR,ND 3.22 5.35,6 of 9 (4.41)

Top 3 of the variants detected in all replicates, tightest first:

{"CDR-L1": "KVSQSVLYEDRNKNSVA", "CDR-L2": "WASTRES", "CDR-L3": "QQYHRLPLG", "replicates, log10 nM": "-0.31 0.02 -0.27", "signal with controls": "1 of 9 (1.61)"}
{"CDR-L1": "KSSQSVLYESRNKNSVA", "CDR-L2": "WASTRES", "CDR-L3": "QQMHTLPLL", "replicates, log10 nM": "0.36 0.82 0.64", "signal with controls": "0 of 9"}
{"CDR-L1": "KSSQSNLYESRNKNSVA", "CDR-L2": "WASTRES", "CDR-L3": "QPYHRLPLQ", "replicates, log10 nM": "0.73 1.04 0.90", "signal with controls": "2 of 9 (3.64)"}